From patent US8026073B2, “Screening G protein-coupled receptor antagonists for methods of treating Alzheimer's disease” (Shanghai Institutes for Biological Sciences, Chinese …, priority 2005, dated 2011)

Amino acid sequences for entries named in this document (tags omitted).
UniProt P33533, whole entry: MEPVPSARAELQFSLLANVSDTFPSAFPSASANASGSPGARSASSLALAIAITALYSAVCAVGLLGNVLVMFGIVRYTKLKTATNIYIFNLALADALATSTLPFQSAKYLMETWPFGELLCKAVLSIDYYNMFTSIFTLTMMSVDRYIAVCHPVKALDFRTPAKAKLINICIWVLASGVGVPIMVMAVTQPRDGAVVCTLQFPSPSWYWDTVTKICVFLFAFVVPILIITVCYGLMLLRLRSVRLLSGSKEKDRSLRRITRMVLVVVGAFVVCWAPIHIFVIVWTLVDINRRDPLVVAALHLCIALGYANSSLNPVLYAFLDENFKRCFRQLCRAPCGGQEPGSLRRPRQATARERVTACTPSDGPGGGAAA

Biological target: endogenous DOR (Rattus norvegicus, UniProt P33533)
Conditions: primary hippocampal cultures expressing C99; 1 μM DADLE, 1 h

Compound: CC(C)C[C@@H](NC(=O)[C@H](Cc1ccccc1)NC(=O)CNC(=O)[C@@H](C)NC(=O)[C@@H](N)Cc1ccc(O)cc1)C(=O)O [DADLE, [D-Ala^2, D-Leu^5]-enkephalin]
- secreted Aβ: increases Aβ production
